Measurements: ChEMBL document CHEMBL2311250 (Bioorg Med Chem Lett, 2013)
One block for each compound: values may come before it.

Sequences of proteins named here, by UniProt entry; tags and fusion partners are left off. A change or cut given only in a name is not applied to a line headed by its entry.
UniProt P31749: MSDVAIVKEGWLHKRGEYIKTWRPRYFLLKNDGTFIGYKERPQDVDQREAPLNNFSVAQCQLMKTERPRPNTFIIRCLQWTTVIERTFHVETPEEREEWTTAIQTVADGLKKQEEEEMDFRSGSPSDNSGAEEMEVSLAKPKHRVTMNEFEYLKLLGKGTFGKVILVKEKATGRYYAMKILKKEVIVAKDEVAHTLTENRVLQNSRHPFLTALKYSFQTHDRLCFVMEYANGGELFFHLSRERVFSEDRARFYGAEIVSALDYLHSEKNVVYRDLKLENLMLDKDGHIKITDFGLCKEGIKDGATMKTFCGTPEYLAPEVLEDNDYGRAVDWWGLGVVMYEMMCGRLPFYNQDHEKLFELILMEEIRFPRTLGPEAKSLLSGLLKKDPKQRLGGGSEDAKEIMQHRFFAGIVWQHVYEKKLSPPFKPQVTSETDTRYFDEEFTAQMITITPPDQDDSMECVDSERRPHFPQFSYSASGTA
UniProt Q06187: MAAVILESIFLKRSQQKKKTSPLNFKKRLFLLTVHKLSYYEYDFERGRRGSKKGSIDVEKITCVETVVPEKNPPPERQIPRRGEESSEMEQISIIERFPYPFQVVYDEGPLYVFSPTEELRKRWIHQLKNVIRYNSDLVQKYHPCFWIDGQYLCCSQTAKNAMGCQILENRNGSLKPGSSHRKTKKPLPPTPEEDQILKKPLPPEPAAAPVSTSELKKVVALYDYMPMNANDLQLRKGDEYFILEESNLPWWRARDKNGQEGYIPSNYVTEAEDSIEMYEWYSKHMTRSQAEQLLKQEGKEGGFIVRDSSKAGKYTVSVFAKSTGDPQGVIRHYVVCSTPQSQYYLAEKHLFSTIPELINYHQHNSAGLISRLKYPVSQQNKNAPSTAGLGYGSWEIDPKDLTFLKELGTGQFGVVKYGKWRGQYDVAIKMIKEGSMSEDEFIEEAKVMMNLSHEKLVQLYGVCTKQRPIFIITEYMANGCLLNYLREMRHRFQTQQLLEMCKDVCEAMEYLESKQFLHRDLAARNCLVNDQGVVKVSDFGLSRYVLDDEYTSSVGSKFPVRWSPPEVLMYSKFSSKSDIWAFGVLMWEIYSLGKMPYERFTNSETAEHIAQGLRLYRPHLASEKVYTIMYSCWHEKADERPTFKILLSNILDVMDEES
UniProt Q9P0L2: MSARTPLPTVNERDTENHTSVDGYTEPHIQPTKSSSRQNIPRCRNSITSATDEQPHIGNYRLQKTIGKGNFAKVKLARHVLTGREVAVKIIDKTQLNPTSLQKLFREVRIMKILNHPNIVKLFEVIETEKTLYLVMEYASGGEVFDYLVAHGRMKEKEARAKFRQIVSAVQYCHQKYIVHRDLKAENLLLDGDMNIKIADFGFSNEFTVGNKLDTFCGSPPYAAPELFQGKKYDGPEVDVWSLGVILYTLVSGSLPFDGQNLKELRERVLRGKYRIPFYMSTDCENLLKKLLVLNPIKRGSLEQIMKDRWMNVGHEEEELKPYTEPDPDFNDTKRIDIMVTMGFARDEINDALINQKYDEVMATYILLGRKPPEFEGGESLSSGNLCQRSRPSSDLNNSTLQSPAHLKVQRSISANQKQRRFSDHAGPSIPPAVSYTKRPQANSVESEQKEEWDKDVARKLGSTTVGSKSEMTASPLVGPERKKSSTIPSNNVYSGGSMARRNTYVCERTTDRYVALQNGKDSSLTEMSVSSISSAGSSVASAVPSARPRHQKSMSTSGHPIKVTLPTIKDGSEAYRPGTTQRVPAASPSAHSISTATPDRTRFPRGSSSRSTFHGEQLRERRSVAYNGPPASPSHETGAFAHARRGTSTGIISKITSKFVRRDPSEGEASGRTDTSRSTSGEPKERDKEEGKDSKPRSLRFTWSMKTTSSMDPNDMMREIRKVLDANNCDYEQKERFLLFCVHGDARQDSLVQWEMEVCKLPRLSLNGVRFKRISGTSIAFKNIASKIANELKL
UniProt Q14012: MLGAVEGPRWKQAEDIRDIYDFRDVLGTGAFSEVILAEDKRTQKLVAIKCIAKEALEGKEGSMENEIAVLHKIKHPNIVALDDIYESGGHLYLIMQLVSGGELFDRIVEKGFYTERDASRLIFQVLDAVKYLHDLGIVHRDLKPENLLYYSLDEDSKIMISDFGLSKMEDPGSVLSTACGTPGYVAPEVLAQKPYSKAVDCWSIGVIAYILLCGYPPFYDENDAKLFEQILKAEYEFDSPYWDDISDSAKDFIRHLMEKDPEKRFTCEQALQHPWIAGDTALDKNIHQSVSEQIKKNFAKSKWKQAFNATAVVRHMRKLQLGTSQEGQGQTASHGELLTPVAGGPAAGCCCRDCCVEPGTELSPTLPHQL
UniProt P29317, whole entry: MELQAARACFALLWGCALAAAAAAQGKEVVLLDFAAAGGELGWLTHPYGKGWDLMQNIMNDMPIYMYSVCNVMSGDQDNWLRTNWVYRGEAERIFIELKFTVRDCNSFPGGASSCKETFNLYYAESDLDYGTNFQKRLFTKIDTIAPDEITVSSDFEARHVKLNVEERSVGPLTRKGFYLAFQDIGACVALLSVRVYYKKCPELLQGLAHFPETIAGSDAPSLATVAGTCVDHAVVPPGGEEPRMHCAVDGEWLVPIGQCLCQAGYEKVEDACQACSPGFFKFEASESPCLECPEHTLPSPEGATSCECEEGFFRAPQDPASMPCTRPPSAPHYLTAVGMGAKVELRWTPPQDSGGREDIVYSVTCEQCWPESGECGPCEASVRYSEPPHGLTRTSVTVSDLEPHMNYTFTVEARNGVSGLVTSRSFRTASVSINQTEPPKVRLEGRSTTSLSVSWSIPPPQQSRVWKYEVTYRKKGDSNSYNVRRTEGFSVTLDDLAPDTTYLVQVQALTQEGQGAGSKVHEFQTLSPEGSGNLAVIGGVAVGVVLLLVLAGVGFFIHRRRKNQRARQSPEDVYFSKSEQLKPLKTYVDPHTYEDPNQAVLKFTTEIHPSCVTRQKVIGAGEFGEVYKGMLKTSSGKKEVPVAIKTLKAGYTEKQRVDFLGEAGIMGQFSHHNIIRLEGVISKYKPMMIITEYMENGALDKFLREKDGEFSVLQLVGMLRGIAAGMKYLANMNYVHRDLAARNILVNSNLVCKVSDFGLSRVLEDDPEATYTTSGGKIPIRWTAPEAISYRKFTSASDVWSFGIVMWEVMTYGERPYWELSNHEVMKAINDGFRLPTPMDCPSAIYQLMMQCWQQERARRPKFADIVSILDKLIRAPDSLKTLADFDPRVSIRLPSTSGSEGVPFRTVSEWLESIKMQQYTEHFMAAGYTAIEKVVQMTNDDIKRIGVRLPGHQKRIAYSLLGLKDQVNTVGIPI
UniProt Q9P289: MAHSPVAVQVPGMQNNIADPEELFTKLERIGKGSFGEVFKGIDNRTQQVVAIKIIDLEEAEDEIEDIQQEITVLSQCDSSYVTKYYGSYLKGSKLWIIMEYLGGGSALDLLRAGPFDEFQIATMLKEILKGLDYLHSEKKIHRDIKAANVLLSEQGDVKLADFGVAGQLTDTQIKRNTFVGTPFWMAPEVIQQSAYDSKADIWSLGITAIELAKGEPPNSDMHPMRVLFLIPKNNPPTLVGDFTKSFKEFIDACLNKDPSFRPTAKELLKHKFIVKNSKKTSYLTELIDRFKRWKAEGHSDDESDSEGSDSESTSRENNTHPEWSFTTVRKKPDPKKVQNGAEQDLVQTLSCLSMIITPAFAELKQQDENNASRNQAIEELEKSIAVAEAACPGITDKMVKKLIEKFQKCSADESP
UniProt P28482, whole entry: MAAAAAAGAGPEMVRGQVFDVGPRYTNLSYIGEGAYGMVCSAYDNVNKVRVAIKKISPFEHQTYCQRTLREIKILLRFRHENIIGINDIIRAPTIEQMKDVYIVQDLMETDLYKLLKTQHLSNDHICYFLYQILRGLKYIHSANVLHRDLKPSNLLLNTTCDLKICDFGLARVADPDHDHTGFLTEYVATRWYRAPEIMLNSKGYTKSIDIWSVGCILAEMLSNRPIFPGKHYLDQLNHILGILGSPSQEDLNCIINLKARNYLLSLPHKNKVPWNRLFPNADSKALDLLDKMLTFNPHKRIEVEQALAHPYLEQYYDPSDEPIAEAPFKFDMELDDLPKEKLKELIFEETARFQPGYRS
UniProt O14920: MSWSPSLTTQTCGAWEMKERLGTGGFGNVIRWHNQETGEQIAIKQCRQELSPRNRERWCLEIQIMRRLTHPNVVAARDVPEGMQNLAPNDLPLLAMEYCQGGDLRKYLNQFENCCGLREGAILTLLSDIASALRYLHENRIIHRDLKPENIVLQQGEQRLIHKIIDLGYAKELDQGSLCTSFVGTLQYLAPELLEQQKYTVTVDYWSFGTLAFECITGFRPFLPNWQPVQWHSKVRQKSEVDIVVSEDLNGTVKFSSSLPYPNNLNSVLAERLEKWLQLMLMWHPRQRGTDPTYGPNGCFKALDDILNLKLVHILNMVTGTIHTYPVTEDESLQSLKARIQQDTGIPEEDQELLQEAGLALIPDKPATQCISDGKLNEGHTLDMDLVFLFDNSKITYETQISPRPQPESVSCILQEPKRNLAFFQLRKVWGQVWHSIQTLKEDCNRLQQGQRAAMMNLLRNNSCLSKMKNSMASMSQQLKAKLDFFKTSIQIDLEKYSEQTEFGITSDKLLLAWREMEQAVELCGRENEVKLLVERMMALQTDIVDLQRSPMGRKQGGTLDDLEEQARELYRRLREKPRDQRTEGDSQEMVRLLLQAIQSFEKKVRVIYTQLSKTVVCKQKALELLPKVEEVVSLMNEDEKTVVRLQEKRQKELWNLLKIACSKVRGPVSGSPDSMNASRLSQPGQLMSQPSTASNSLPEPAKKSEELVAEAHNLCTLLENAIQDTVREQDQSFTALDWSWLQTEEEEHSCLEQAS

Tests used:
[1] = target: RAC-alpha serine/threonine-protein kinase (Homo sapiens, UniProt P31749); assay: Inhibition of AKT1 (unknown origin) in presence of ATP
Aurora kinase A = target: T1, Aurora kinase A (Homo sapiens, UniProt O14965); assay: Inhibition of Aurora-A (unknown origin) in presence of ATP
T1 sequence (O14965 whole entry): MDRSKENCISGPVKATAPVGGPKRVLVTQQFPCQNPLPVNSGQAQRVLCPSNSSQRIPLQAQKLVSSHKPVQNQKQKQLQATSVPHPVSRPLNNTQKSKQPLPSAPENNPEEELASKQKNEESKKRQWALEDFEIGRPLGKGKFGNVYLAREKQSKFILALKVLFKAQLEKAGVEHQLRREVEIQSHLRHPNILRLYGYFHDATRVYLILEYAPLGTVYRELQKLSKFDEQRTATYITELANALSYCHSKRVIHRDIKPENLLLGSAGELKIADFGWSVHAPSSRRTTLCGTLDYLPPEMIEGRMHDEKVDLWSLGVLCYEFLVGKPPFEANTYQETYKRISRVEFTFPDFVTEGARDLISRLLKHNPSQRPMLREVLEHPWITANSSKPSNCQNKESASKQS

[2] = target: Tyrosine-protein kinase BTK (Homo sapiens, UniProt Q06187); assay: Inhibition of BTK (unknown origin) in presence of ATP
[3] = target: Serine/threonine-protein kinase MARK1 (Homo sapiens, UniProt Q9P0L2); assay: Inhibition of MARK1 (unknown origin) in presence of ATP
[4] = target: Calcium/calmodulin-dependent protein kinase type 1 (Homo sapiens, UniProt Q14012); assay: Inhibition of CAMK1 (unknown origin) in presence of ATP
Ephrin type-A receptor 2 = Ephrin type-A receptor 2 (Homo sapiens, UniProt P29317); assay: Inhibition of ECK (unknown origin) in presence of ATP
[5] = target: Serine/threonine-protein kinase 26 (Homo sapiens, UniProt Q9P289); assay: Inhibition of MASK (unknown origin) in presence of ATP
[6] = target: T2, Serine/threonine-protein kinase 3 (Homo sapiens, UniProt Q13188); assay: Inhibition of MST2 (unknown origin) in presence of ATP
T2 sequence (Q13188 whole entry): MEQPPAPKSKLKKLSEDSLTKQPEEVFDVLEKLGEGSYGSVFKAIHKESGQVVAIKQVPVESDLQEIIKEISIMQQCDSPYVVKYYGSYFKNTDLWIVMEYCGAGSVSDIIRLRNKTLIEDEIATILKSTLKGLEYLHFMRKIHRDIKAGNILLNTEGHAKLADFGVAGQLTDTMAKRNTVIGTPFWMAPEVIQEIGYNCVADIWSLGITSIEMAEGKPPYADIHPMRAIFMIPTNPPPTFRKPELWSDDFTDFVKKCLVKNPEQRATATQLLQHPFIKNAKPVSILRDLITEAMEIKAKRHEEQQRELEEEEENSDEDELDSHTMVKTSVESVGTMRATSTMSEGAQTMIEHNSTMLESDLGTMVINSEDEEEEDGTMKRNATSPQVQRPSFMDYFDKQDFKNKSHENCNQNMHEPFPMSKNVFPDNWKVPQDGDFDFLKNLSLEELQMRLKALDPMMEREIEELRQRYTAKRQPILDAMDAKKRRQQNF

[7] = target: Mitogen-activated protein kinase 1 (Homo sapiens, UniProt P28482); assay: Inhibition of MAPK1/ERK2 (unknown origin) in presence of ATP
[8] = target: Inhibitor of nuclear factor kappa-B kinase subunit beta (Homo sapiens, UniProt O14920); assay: Inhibition of IKK-beta (unknown origin) in presence of ATP
[9] = target: T3, Serine/threonine-protein kinase Chk1 (Homo sapiens, UniProt O14757); assay: Inhibition of CHK1 (unknown origin) in presence of ATP
T3 sequence (O14757 whole entry): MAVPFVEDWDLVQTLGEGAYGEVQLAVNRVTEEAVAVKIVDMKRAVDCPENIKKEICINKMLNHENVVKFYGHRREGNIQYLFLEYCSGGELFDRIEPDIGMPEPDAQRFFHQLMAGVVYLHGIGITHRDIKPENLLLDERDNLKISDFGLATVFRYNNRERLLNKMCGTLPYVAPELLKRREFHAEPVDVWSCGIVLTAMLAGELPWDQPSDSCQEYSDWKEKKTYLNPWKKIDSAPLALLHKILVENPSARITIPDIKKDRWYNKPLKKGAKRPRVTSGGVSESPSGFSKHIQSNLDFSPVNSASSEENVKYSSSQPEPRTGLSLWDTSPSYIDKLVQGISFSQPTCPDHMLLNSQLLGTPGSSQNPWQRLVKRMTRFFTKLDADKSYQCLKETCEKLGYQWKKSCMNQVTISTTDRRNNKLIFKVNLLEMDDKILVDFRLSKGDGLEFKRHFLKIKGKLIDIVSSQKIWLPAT

- IC50 [1]: 30 µM
- IC50 (Aurora kinase A): 30 µM
- IC50 [2]: 30 µM
SMILES: COc1ccccc1CNc1ncc(C(=O)NC2CCN(C)CC2)c(NC2CCCC2)n1

- IC50 [3]: 30 µM
- IC50 [4]: 30 µM
- IC50 (Ephrin type-A receptor 2): 30 µM
- IC50 [5]: 30 µM
- IC50 [6]: 30 µM
- IC50 [7]: 30 µM
SMILES: CN1CCC(NC(=O)c2cnc(Nc3cc(Cl)cc(Cl)c3)nc2N[C@@H]2COC[C@H]2O)CC1

- IC50 [8]: 30 µM
- IC50 [7]: 30 µM
SMILES: CN1CCC(NC(=O)c2cnc(NCc3cc(Cl)ccc3Cl)nc2NC2CCCC2)CC1

- IC50 [9]: 30 µM
- IC50 [8]: 30 µM
SMILES: CN1CCC(NC(=O)c2cnc(Nc3cc(Cl)cc(Cl)c3)nc2NC2CCC(N(C)C)CC2)CC1 (stereo not drawn)
